# Results published in patent publication US20140294863A1, “SERUM ALBUMIN BINDING PEPTIDES FOR TUMOR TARGETING” (GENENTECH, INC., priority 2002, published 2014).
# How the values were obtained:
# albumin and HER2 = test: Simultaneous binding to immobilized albumin and biotinylated HER2; conditions: FIG. 12
# Experimental: To further characterize the binding of the fusion constructs, the HER2 antigen was labeled with biotin. Briefly, the fusion construct was added to albumin coated microtiter plates. Biotinylated HER2 antigen was added to the solution, and incubated. The plates were washed and analyzed for bound biotin.
# [1] = Pharmacokinetics of AB.Fab variants in mice (HER2 Binding ELISA); format: in vivo; conditions: Mouse, group mean profile
# Experimental: All pharmacokinetic (PK) studies were conducted according to protocols approved by the Institutional Animal Care and Use Committee at Genentech, Inc. Sprague Dawley rats were supplied by Charles River Laboratories (Hollister, Calif. USA). New Zealand White (NWZ) rabbits were supplied by Myrtle's Rabbitry (Thompson Station, Tenn. USA). BALB-c mice were supplied by Charles River (Hollister, Calif. USA).
# Over the course of 7 days serum was collected in 3 mice per time point by retro-orbital bleed or cardiac stick.
# All serum and plasma samples were assayed for 4D5-Fab or AB.Fab variant concentrations using a HER2 Binding ELISA. Briefly, samples were added to microtiter wells coated with HER2ecd and incubated for 2 hours at room temperature. The wells were washed, and goat anti-huFab-HRP was added and incubated for 1 hour at room temperature. Unbound HRP was removed by washing and enzyme substrate was added to detect bound HRP. […] Concentrations of AB.Fab were extrapolated by comparison to a standard curve of the dosed molecule.
# In mice, a group mean serum concentration versus time profile was determined, producing one estimate for pharmacokinetic parameters for each AB.Fab dosing group. […] AB.Fab variant 4D5-H8 was fit to a one compartment model and estimates for the PK parameters of AUC, CL, Half-Life (t1/2) and V1 were determined using WinNonlin® software (Pharsight, Inc., supra).
# [2] = Pharmacokinetics of AB.Fab variants in rabbits (HER2 Binding ELISA); format: in vivo, rabbit
substance,measurement,setting,value
Fab4D5: anti-HER2 Fab fragment without albumin binding peptide; the Fab portion of Herceptin (trastuzumab),simultaneous binding of immobilized albumin and biotinylated HER2,albumin and HER2,failed to bind albumin
same,AUC,[1],20.9 µg·h/mL
same,CL,[1],0.239 L/h/kg
same,V1,[1],0.0368 L/kg
same,Vss,[1],0.0686 L/kg
same,t1/2β,[1]; 4D5-H8 fit to one-compartment model (one half life estimate),1.28 h
same,AUC in rabbits,[2]; 0.5 mg/kg IV bolus,8.75 ± 1.05 µg·h/mL
same,clearance in rabbits,[2]; 0.5 mg/kg IV bolus,0.0608 L/h/kg
same,AUC,"[2]; Rabbit, group mean",8.75 ± 1.05 µg·h/mL
same,CL,"[2]; Rabbit, group mean",0.0608 ± 0.00737 L/h/kg
same,V1,"[2]; Rabbit, group mean",0.0517 ± 0.00107 L/kg
same,Vss,"[2]; Rabbit, group mean",0.122 ± 0.00557 L/kg
same,t1/2β,"[2]; Rabbit, group mean",5.98 ± 0.209 h
